{"sequences": {"note": "Protein sequences, listed by entry. Tags and fused reporters are not part of them.", "UniProt P14416, whole entry": "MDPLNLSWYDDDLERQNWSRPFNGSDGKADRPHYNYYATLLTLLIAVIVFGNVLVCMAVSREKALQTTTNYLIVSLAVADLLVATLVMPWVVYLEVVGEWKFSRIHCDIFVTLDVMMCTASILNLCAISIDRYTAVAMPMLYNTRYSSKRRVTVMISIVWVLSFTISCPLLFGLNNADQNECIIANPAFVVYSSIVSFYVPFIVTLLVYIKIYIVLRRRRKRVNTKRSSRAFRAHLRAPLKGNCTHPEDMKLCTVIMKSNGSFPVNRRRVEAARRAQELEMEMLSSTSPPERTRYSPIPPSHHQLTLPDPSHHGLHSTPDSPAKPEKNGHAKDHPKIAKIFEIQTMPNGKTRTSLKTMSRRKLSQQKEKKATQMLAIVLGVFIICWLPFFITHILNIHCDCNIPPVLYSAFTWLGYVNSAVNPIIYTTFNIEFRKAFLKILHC"}, "source": "PubChem BioAssay AID624464", "about": "(National Center for Advancing Translational Sciences (NCATS), 2012)", "note": "The list shows a part of the results, in another mix than the full data. Calls of active or inactive are those of the source. No stated cut-off is given here; in the data, active means potentiation above about 50%; inconclusive means mostly about 30% to 49%; inactive means weaker than that.", "data": [{"molecular_target": "D(2) dopamine receptor (Homo sapiens) (UniProt P14416)", "assay": "Beta-Arrestin HTS for Positive Allosteric Modulators of the Human D2 Dopamine Receptor: Potentiators", "conditions": "DiscoveRx D2 beta-arrestin cells, luminescence, 90 min; stronger effect = higher value; 100% = 57 uM dopamine signal", "method_in_brief": "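PathHunter D2 cells, attached overnight at 37 deg C, received compound in DMSO plus dopamine at EC20 (50 nM final) for 90 min at 37 deg C. Beta-arrestin recruitment was read as luminescence after 1 h with detection reagent at ambient temperature.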", "values": [{"compound": "COc1ccccc1OP(=O)(Nc1ccc(C)cn1)Oc1ccccc1OC", "potentiation": "inactive: 0.405%"}, {"compound": "COc1ccc(OP(C)(=O)Nc2ccccn2)cc1", "note": "(configuration not stated)", "potentiation": "inactive: 0.469%"}, {"compound": "Cc1ccc(OP(=O)(Nc2nccs2)Oc2ccc(C)cc2)cc1", "potentiation": "inactive: -10.5%"}, {"compound": "Oc1ccccc1CNc1ccccn1", "potentiation": "inactive: -2.01%"}, {"compound": "O=C(NC(Sc1ccncn1)C(Cl)(Cl)Cl)c1ccccc1", "note": "(configuration not stated)", "potentiation": "inactive: 12.4%"}, {"compound": "Nc1cc(N)c2nonc2c1[N+](=O)[O-]", "potentiation": "inactive: 14.1%"}, {"compound": "Cc1c(NP(C)(=O)Oc2ccc(C(C)C)cc2)c(=O)n(-c2ccccc2)n1C", "note": "(configuration not stated)", "potentiation": "inactive: 0.342%"}, {"compound": "O=[N+]([O-])c1cc([N+](=O)[O-])c(Nc2ccccn2)c([N+](=O)[O-])c1", "potentiation": "inactive: 13.9%"}, {"compound": "CC(C)CC(=O)NC(Sc1ccc(Cl)cc1)C(Cl)(Cl)Cl", "note": "(configuration not stated)", "potentiation": "inactive: 5.3%"}, {"compound": "O=[N+]([O-])C1C(O)C(O)C([N+](=O)[O-])C(O)C1O", "note": "(configuration not stated)", "potentiation": "inactive: -3.48%"}, {"compound": "CCc1ccc(OP(C)(=O)O)cc1", "potentiation": "inactive: -18%"}, {"compound": "CP(=O)(Nc1ccccn1)Oc1ccccc1", "note": "(configuration not stated)", "potentiation": "inactive: -12.5%"}, {"compound": "COc1ccccc1OP(C)(=O)Nc1ccc(C)cc1C", "note": "(configuration not stated)", "potentiation": "inactive: -4.6%"}, {"compound": "O=P(Nc1nc2ccc(Cl)cc2s1)(c1ccccc1)c1ccccc1", "potentiation": "inactive: -4.48%"}, {"compound": "CN(C)P(=O)(N(C)C)n1c(Nc2ccccc2)nnc1-c1ccccc1", "potentiation": "inactive: -10.6%"}, {"compound": "Cc1cc(C)cc(OP(C)(=O)Nc2cccc(C(F)(F)F)c2)c1", "note": "(configuration not stated)", "potentiation": "inactive: -2.32%"}, {"compound": "CC(=O)Nc1ccc([As](=O)(O)O)cc1", "potentiation": "inactive: -6.86%"}, {"compound": "O=C(O)c1ccccc1[As](=O)(O)O", "potentiation": "inactive: -8.44%"}, {"compound": "CCCC1OP(N)(=O)OCC1CC", "note": "(configuration not stated)", "potentiation": "inactive: -6.49%"}, {"compound": "COc1ccc(OP(C)(=O)Nc2ccccc2Br)cc1", "note": "(configuration not stated)", "potentiation": "inactive: -9.95%"}, {"compound": "Cc1cc(SC(NC(=O)c2ccc(F)cc2)C(Cl)(Cl)Cl)ncn1", "note": "(configuration not stated)", "potentiation": "inactive: -13%"}, {"compound": "CCOP(=O)(Nc1ccccc1)OCC", "potentiation": "inactive: -2.85%"}, {"compound": "COc1ccccc1OP(C)(=O)Nc1ccc(C)c(C)c1", "note": "(configuration not stated)", "potentiation": "inactive: -7.49%"}, {"compound": "CN(C(=O)Cc1ccc(Cl)c(Cl)c1)[C@H]1CCCC[C@@H]1N1CCCC1", "potentiation": "inactive: -15.5%"}, {"compound": "Cc1ccc(NP(=O)(Oc2ccccc2F)Oc2ccccc2F)nc1", "potentiation": "inactive: -10.1%"}, {"compound": "Nc1cccc2ccc([As](=O)(O)O)cc12", "potentiation": "inactive: 20.6%"}, {"compound": "CCCCCCCCCCCCCCCC1C[N+](C)(C)CCOP(C)(=O)O1", "note": "(configuration not stated)", "potentiation": "inactive: -23.6%"}, {"compound": "CP(=O)(Nc1ccc(Cl)cc1Cl)Oc1ccccc1", "note": "(configuration not stated)", "potentiation": "inactive: 15.3%"}, {"compound": "CP(=O)(OCCOc1ccccc1)OCCOc1ccccc1", "potentiation": "inactive: -6.39%"}, {"compound": "CCN(N=Nc1nonc1N)c1nonc1N", "potentiation": "inactive: -3.54%"}, {"compound": "O=[N+]([O-])c1cc([N+](=O)[O-])c(Nc2cccnc2)c([N+](=O)[O-])c1", "potentiation": "inactive: -21%"}, {"compound": "C[As](=O)(O)c1cccc(C(=O)O)c1", "potentiation": "inactive: -3.45%"}, {"compound": "O=[As](O)(c1ccc(O)cc1)c1ccccc1O", "potentiation": "inactive: -5.61%"}, {"compound": "O=[N+]([O-])c1ccc(-c2cc([N+](=O)[O-])c(O)c([N+](=O)[O-])c2)cc1", "potentiation": "inactive: -16.7%"}, {"compound": "COc1cc(C(=O)NCC2(N3CCOCC3)CCCCC2)ccc1OCC(C)C", "potentiation": "inactive: -6.28%"}, {"compound": "Cc1ccc(OP(=O)(Nc2ccc([N+](=O)[O-])cn2)Oc2ccc(C)cc2)cc1", "potentiation": "inactive: -5.73%"}, {"compound": "CC(C)(C)c1ccc(OP(C)(=O)Nc2ccc(SC(F)(F)F)cc2)cc1", "note": "(configuration not stated)", "potentiation": "inactive: -22%"}, {"compound": "Cc1cccc(C)c1OP(C)(N)=O", "note": "(configuration not stated)", "potentiation": "inactive: -2.22%"}, {"compound": "O=[N+]([O-])c1ccc2c(c1)C=Nc1ccccc1O2", "potentiation": "inactive: 1.91%"}, {"compound": "Cc1ccc2nc3c(c(C)c2c1)CC(C(Cl)Cl)S3", "note": "(configuration not stated)", "potentiation": "inactive: 5.94%"}, {"compound": "CCOC(=O)c1ccc(NP(C)(=O)Oc2ccccc2)cc1", "note": "(configuration not stated)", "potentiation": "inactive: 2.71%"}, {"compound": "ClCCSc1nnc(-c2cccnc2)o1", "potentiation": "inactive: -16.9%"}, {"compound": "COc1ccccc1OP(C)(=O)Nc1ccc(C)cc1", "note": "(configuration not stated)", "potentiation": "inactive: 2.17%"}, {"compound": "COC(=O)C1(C)COP(=O)(N2CCCCCC2)OC1", "note": "(configuration not stated)", "potentiation": "inactive: -7.22%"}, {"compound": "CC(C)c1ccc(OP(=O)(Nc2ccccn2)Oc2ccccc2F)cc1", "note": "(configuration not stated)", "potentiation": "inactive: 0.801%"}, {"compound": "Cc1ccc(NP(C)(=O)Oc2ccccc2)c(C)c1", "note": "(configuration not stated)", "potentiation": "inactive: -13%"}, {"compound": "CC(C)NC(=O)NP(=O)(Oc1ccccc1)Oc1ccccc1", "potentiation": "inactive: -2.72%"}, {"compound": "COc1ccccc1OP(C)(=O)Nc1cc(Cl)ccc1C", "note": "(configuration not stated)", "potentiation": "inactive: -18.4%"}, {"compound": "O=C(OC1CN2CCC1CC2)c1cccc2[nH]cnc12", "note": "(configuration not stated)", "potentiation": "inactive: -3.25%"}, {"compound": "CCN(CC)C(=S)SC(NC=O)C(Cl)(Cl)Cl", "note": "(configuration not stated)", "potentiation": "inactive: -12.1%"}, {"compound": "COc1ccc(OP(C)(=O)Nc2cccc(F)c2)cc1", "note": "(configuration not stated)", "potentiation": "inactive: -0.924%"}, {"compound": "O=[N+]([O-])c1cc([N+](=O)[O-])c(-c2ccn[nH]2)s1", "potentiation": "inactive: 3.59%"}, {"compound": "Cc1cc(C)cc(OP(C)(N)=O)c1", "note": "(configuration not stated)", "potentiation": "inactive: 3.14%"}, {"compound": "Cc1c2c(nc3ccccc13)SC(C(Cl)Cl)C2", "note": "(configuration not stated)", "potentiation": "inactive: -9.89%"}, {"compound": "O=C(OC1CN2CCC1CC2)C12CC3CC(CC(C3)C1)C2", "note": "(configuration not stated)", "potentiation": "inactive: -19.9%"}, {"compound": "CCN(CC)CCCOC(=O)C(O)(c1ccccc1)c1ccccc1", "potentiation": "inactive: -11.4%"}, {"compound": "Cc1cc(=O)[nH]c(N[N+](=O)[O-])n1", "potentiation": "inactive: -2.43%"}, {"compound": "O=P1(N(CCCl)CCCl)OCCCN1CCCl", "note": "(configuration not stated)", "potentiation": "inactive: -9.87%"}, {"compound": "O=P1(N(CCCl)CCCl)Nc2ccccc2N1", "potentiation": "inactive: -3.8%"}, {"compound": "COc1ccc2nc(NP(=O)(c3ccccc3)c3ccccc3)sc2c1", "potentiation": "inactive: 1.25%"}, {"compound": "COc1cc(I)ccc1[As](=O)(O)O", "potentiation": "inactive: -1.4%"}, {"compound": "COc1ccc(N/C(=N/P(=O)(N2CCOCC2)N2CCOCC2)N2CCOCC2)cc1", "potentiation": "inactive: -0.901%"}, {"compound": "COP1(=S)c2c(C)nn(CCC#N)c2N=C(c2ccc(F)cc2)N1C", "note": "(configuration not stated)", "potentiation": "inactive: -5.77%"}, {"compound": "CP(=O)(Nc1ccc(SC(F)(F)F)cc1)Oc1ccc(Cl)cc1", "note": "(configuration not stated)", "potentiation": "inactive: -9.21%"}, {"compound": "Cc1cccc(C)c1OP(C)(=O)Nc1ccc(SC(F)(F)F)cc1", "note": "(configuration not stated)", "potentiation": "inactive: -19%"}, {"compound": "COC(=O)C1(C)COP(=O)(N2CCCC2)OC1", "note": "(configuration not stated)", "potentiation": "inactive: -10.2%"}, {"compound": "CP(=O)(Oc1ccccc1)OC(c1ccccc1)C(F)(F)F", "note": "(configuration not stated)", "potentiation": "inactive: -8.62%"}]}]}
